Test results from ChEMBL document CHEMBL1128860, “5-O-Carboxymethyl piperazide derivatives of serotonin: a new class of potent and selective 5-HT1D receptor agonists” (Bioorg Med Chem Lett, 1995).
pEC50: −log10 of the molar value.

Amino acid sequences for entries named in this document (tags omitted).
UniProt P08908, whole entry: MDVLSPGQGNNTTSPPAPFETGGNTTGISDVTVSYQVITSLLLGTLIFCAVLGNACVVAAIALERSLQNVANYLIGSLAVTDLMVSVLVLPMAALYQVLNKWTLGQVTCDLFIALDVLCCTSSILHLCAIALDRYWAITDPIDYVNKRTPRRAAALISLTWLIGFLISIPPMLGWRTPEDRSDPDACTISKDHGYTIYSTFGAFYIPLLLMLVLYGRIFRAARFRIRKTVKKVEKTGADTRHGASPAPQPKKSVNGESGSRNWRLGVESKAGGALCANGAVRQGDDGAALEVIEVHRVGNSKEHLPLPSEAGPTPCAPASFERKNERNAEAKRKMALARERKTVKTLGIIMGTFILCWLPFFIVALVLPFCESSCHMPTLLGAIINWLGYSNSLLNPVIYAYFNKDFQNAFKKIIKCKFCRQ

Target: 5-hydroxytryptamine receptor 1A (Homo sapiens, UniProt P08908)
Assay: Compound was tested for its ability to inhibit forskolin-stimulated activity of adenylate cyclase coupled to human 5-HT 1A receptor in HeLa cells
Format: functional, cell-based

CNS(=O)(=O)Cc1ccc2[nH]cc(CCN(C)C)c2c1
pEC50: < 6.00
